From PMC8301065

Legend:
Assay in all cases: pyrene-actin polymerization assay; 5 µM c-actin with pyrene-labeled skeletal muscle actin added at 20:1, G-buffer; polymerization induced by 2 mM MgCl2 and 0.1 M KCl; rise of pyrene fluorescence; control without nucleator
[1] = target: human cardiac α-actin mutant p.A295S (human)
[2] = target: human cardiac α-actin mutant p.R312H (human)
[3] = target: human cardiac α-actin mutant p.E361G (human)

How did the half time of polymerization (t1/2) [1] turn out when “human cardiac α-actin mutant p.A295S (natural protein)” was run?
Its half time of polymerization (t1/2) is 12.2 min.

Which half time of polymerization (t1/2) [2] does the source give for “human cardiac α-actin mutant p.R312H (natural protein)” here?
The half time of polymerization (t1/2) was 13.8 min.

“human cardiac α-actin mutant p.E361G (natural protein)” was tested. Which half time of polymerization (t1/2) [3] did it give?
The half time of polymerization (t1/2) was 4 min.
